Results reported in PubChem BioAssay AID1508640 (National Center for Advancing Translational Sciences (NCATS), 2021).
Only a part is listed here, and it is no random draw. Records with an inconclusive call do not appear. Calls of active or inactive are those of the source. The call rests on the fitted dose curve; in most records, active means well fitted inhibition curve with a large enough effect; inconclusive means small, poorly fitted or top-dose-only effect, or another doubt; inactive means no such curve, though single readings can be large or run the other way.

Protein sequences, listed by entry. Tags and fused reporters are not part of them.
UniProt P08659, whole entry: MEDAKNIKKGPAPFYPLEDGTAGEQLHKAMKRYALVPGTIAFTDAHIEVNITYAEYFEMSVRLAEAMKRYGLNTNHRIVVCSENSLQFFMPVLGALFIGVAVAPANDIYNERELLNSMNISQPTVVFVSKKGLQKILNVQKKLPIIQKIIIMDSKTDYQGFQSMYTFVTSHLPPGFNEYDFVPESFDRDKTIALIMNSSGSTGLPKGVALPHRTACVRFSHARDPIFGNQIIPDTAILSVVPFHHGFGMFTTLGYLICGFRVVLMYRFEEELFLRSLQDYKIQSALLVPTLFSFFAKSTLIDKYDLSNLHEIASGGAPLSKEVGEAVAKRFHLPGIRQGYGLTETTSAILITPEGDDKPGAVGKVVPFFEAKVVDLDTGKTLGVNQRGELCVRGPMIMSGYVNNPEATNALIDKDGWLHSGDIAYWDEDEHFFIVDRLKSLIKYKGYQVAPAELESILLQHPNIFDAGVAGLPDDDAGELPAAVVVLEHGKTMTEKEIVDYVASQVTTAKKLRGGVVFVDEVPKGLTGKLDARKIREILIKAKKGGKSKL

Molecular target: Luciferin 4-monooxygenase (Photinus pyralis) (UniProt P08659)
Test: Biochemical FLuc counterscreen for small molecule modulators of PMP22 gene expression; further: % of control where 0% means no effect
Conditions: purified P. pyralis FLuc, luminescence, 10 min; at 57.5 µM (top of the series)
From the text: Assay Provider: Jim Inglese Ph.D. National Center for Advancing Translational Science, National Institutes of Health, Rockville, MD CMT is a heterogeneous group of neurological disorders that affect approximately 1 in 2,500 people. In particular, the most common form of CMT, CMT1A is genetically linked to the duplication of the PMP22 gene which leads to Schwann cell overexpression, thus manifesting itself as a typical case of dose-sensitive diseases. […] We can further discriminate the effect of all transcriptionally active molecules on PMP22 translation or stability with an assay that incorporates a short NLuc peptide (HiBiT) at the C-terminus of expressed PMP22 (S16(f8) PMP22-HiBiT) allowing alpha complementation and luminescence detection of membrane-associated PMP22 protein. […] Miniaturization of these assays to 1536-well plate format for quantitative high throughput screening (qHTS) yielded rich data sets immediately from the qHTS assay (S16(c9) Pmp22-F2sN), when compared with data from a cell viability assay (Cell TiterGlo) to identify compounds that decreased the output signals through cellular toxicity to streamline the selection process of actives for subsequent characterization using the HiBiT assay (S16(f8) PMP22-HiBiT). […]

With `CC(C)(C)c1ccc(C(=O)NCC2(N3CCOCC3)CCCCC2)cc1` the activity, negative = inhibition was inactive: 0.316%.
